Reference: patent publication US20170198196A1, “METHODS FOR CONTROLLING SOURING IN ENGINEERED SYSTEMS” (The Regents of the University of California, priority 2014, published 2017)
Where two headings read alike, the source gives them in different places.

Columns and labels:
[1] = system: Desulfovibrio alaskensis G20; assay: microbe, parasite or virus in culture; conditions: Oleidesulfovibrio alaskensis
[2] = system: Desulfovibrio alaskensis G20 tn5::rex mutant
[3] = system: Desulfovibrio alaskensis G20; conditions: for IC50: read-out: IC50 against growth of Desulfovibrio alaskensis G20
[4] = system: Desulfovibrio alaskensis G20

Molecule F [fluoride ion, fluoride] has an IC50 ([1]; G20, 48 h, read-out: IC50 against growth of Desulfovibrio alaskensis G20 (95% confidence interval)) of 34000 µM.
With [O]=[Mo](=[O])([O-])[O-] [molybdate] the “response of Rex mutants relative to wild-type G20, in words” value [2] was “equally potent inhibitors of Rex mutants and wild-type cells”, the IC50 [3] was 28.1 µM and the “potency against sulfite grown cells relative to sulfate grown cells, in words” value [4] was “less inhibitory to sulfite grown cells than sulfate grown cells”.
With O=[N+]([O-])O [nitrate] the “response of Rex mutants relative to wild-type G20, in words” value [2] was “resistant”, the “potency against pyruvate fermenting G20 relative to lactate/sulfate grown G20, in words” value [4] was “less potent inhibitors of pyruvate grown G20 than lactate/sulfate grown G20” and the “potency against sulfite grown cells relative to sulfate grown cells, in words” value [4] was “less inhibitory to sulfite grown cells than sulfate grown cells”.
For O=NO [nitrite], the “IC50 values (in terms of growth inhibition), in words” value [3] was “sub-millimolar” and the “potency against sulfite grown cells relative to sulfate grown cells, in words” value [4] was “more inhibitory of sulfite reduction”.
With [O-][Cl+3]([O-])([O-])O [perchlorate] the IC50 ([1]; G20, read-out: IC50 against growth of Desulfovibrio alaskensis G20) was 23200 µM.
Molecule O=[Se](=O)(O)O [selenate] has an IC50 [3] of 4 µM.
O=S(=O)(O)O [sulfate] was tested, and the “IC50 against growth of Desulfovibrio alaskensis G20” value [3] was “growth substrate”.
For O=S(O)O [sulfite], the “IC50 against growth of Desulfovibrio alaskensis G20” value [3] was “growth substrate”.
For [O]=[W](=[O])([O-])[O-] [tungstate], the “response of Rex mutants relative to wild-type G20, in words” value [2] was “equally potent inhibitors of Rex mutants and wild-type cells” and the IC50 [3] was 63.3 µM.
For (per)chlorate, the “response of Rex mutants relative to wild-type G20, in words” value [2] was “resistant”, the “potency against pyruvate fermenting G20 relative to lactate/sulfate grown G20, in words” value [4] was “less potent inhibitors of pyruvate grown G20 than lactate/sulfate grown G20” and the “potency against sulfite grown cells relative to sulfate grown cells, in words” value [4] was “less inhibitory to sulfite grown cells than sulfate grown cells”.
With chlorite the “IC50 values (in terms of growth inhibition), in words” value [3] was “sub-millimolar” and the IC50 [3] was under 1000 µM.
